Measured values: US12414974B2, “Materials and methods for treating cancer” (priority 2017, dated 2025)

Key:
[1] = system: GBM12 cells; test: MV anti-tumor effect in vitro (MTT cell viability); assay type: cell-based, human; settings: GBM12, 50 U/ml for 18-24 hours prior to MV-NIS (MOI 1)
Description: (§1) MV anti-tumor effect in vitro. GBM cells were inoculated at a multiplicity of infection (MOI) of 0.1 and 1.0 with MV strains diluted in Opti-MEM (Life Technologies). MTT proliferation assay (ATCC, Rockville, MD) was used to determine the cell viability at 24 hours to 10 days post MV inoculation. Samples were run 6-8 wells in 96-well plates and cells inoculated with inactivated MV were used as control.

[2] = system: GBM64 cells; test: MV anti-tumor effect in vitro (MTT cell viability); assay type: cell-based, human; settings: GBM64, 50 U/ml for 18-24 hours prior to MV-NIS (MOI 1)
Description: as §1

B1: IFN-β: recombinant human IFN-β used to pre-treat MV permissive cells (protein, UniProt P01574 22-187, looked up)
Interferon beta: MSYNLLGFLQRSSNFQCQKLLWQLNGRLEYCLKDRMNFDIPEEIKQLQQFQKEDAALTIYEMLQNIFAIFRQDSSSTGWNETIVENLLANVYHQINHLKTVLEEKLEKEDFTRGKLMSSLHLKRYYGRILHYLKAKEYSHCAWTIVRVEILRNFYFINRLTGYLRN
B1 was tested, and the “effect on MV cell killing (MTT)” value [1] was “decreased the cell killing ability of MV” and the “effect on MV cell killing (MTT)” value [2] was “decreased the cell killing ability of MV”.
